{"sequences": {"note": "Chains of the proteins cited; added tags and fusions are not shown. Residues count along the entry.", "UniProt P08581, 25-1390 limits assumed": "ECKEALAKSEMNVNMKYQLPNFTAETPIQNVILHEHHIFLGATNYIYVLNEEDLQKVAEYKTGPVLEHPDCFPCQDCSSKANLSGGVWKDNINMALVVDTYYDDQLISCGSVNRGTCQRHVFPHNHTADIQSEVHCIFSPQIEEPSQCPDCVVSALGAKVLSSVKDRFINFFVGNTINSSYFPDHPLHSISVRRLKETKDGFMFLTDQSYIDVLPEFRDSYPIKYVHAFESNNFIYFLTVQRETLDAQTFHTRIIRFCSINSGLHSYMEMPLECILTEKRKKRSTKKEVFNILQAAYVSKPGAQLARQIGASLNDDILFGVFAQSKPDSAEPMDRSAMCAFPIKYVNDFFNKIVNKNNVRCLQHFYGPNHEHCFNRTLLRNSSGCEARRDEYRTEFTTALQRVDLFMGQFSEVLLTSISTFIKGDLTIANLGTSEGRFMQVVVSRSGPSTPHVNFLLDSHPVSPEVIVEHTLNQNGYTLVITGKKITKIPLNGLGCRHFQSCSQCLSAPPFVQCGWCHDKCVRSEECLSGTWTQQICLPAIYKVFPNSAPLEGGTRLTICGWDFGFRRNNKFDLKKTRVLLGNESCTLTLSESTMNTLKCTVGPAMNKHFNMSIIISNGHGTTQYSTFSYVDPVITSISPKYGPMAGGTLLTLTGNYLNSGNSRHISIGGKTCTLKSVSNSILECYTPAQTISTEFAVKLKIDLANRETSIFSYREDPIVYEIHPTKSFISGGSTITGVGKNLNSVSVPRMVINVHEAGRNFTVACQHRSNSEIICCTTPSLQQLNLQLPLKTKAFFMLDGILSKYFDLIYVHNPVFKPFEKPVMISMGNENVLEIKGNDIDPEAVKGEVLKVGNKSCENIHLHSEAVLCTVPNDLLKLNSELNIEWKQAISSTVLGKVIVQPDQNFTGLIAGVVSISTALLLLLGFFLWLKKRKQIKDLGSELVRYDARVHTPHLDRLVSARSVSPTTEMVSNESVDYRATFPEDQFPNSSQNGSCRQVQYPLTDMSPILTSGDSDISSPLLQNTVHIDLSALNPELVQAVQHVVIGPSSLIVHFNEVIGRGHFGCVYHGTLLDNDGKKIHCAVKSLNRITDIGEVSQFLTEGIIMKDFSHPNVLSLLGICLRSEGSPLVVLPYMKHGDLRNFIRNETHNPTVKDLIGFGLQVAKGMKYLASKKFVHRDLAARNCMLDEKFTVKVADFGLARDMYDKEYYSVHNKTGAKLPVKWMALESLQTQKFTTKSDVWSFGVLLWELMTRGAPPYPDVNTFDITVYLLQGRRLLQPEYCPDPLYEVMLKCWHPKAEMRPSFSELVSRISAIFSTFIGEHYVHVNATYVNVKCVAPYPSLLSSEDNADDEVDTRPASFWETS", "UniProt P54756, 25-1037 limits assumed": "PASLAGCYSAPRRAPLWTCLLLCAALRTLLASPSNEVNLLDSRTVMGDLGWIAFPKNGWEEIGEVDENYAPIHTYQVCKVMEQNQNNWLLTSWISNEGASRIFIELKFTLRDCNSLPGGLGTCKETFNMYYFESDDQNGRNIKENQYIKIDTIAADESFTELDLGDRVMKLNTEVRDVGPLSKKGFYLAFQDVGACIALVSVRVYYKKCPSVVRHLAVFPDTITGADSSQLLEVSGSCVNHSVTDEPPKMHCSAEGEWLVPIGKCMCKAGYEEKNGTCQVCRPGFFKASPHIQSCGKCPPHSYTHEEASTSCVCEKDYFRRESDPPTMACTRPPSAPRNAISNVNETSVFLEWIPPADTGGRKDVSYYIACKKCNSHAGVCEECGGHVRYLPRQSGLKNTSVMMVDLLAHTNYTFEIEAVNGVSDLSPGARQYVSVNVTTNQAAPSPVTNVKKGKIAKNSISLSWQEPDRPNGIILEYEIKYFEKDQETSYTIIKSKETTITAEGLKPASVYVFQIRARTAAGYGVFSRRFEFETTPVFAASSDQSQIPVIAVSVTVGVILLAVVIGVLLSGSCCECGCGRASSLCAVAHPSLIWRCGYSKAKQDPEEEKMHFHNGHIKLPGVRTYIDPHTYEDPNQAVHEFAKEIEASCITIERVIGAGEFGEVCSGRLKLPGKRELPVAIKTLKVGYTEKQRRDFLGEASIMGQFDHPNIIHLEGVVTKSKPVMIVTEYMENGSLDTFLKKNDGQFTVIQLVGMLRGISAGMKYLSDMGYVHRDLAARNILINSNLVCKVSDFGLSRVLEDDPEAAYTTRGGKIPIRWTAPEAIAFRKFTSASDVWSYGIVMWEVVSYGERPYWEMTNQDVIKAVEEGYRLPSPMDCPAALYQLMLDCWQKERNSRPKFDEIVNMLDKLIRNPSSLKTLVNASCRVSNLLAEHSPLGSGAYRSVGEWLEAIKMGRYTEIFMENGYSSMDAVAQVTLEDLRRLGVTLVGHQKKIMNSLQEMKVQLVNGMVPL", "UniProt Q15375, 28-998 limits assumed": "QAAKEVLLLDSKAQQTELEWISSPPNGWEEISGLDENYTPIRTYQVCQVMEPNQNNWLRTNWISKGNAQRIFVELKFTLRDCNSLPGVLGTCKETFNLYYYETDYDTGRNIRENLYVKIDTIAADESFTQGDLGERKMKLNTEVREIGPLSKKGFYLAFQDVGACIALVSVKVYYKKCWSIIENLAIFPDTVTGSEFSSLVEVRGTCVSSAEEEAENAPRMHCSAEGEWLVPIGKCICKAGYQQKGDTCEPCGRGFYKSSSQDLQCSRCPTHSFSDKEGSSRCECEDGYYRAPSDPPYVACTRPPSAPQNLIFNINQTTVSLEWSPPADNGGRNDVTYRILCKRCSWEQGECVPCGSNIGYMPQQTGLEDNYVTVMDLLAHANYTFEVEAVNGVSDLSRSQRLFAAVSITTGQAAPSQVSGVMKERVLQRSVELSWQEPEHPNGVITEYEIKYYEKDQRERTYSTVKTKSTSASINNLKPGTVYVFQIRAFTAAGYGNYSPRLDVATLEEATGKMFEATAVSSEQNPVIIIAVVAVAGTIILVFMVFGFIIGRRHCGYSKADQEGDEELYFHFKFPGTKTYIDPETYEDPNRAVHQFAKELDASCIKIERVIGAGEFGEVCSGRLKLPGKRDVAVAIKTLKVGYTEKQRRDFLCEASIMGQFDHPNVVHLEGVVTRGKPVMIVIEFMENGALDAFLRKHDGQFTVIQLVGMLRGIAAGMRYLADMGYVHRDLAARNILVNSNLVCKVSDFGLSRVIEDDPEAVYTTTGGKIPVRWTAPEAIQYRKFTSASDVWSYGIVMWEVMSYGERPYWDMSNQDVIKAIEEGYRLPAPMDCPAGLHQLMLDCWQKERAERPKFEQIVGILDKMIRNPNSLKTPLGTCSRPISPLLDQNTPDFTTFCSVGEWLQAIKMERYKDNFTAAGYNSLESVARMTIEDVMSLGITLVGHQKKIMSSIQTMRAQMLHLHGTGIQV", "UniProt Q02763, 23-1124 limits assumed": "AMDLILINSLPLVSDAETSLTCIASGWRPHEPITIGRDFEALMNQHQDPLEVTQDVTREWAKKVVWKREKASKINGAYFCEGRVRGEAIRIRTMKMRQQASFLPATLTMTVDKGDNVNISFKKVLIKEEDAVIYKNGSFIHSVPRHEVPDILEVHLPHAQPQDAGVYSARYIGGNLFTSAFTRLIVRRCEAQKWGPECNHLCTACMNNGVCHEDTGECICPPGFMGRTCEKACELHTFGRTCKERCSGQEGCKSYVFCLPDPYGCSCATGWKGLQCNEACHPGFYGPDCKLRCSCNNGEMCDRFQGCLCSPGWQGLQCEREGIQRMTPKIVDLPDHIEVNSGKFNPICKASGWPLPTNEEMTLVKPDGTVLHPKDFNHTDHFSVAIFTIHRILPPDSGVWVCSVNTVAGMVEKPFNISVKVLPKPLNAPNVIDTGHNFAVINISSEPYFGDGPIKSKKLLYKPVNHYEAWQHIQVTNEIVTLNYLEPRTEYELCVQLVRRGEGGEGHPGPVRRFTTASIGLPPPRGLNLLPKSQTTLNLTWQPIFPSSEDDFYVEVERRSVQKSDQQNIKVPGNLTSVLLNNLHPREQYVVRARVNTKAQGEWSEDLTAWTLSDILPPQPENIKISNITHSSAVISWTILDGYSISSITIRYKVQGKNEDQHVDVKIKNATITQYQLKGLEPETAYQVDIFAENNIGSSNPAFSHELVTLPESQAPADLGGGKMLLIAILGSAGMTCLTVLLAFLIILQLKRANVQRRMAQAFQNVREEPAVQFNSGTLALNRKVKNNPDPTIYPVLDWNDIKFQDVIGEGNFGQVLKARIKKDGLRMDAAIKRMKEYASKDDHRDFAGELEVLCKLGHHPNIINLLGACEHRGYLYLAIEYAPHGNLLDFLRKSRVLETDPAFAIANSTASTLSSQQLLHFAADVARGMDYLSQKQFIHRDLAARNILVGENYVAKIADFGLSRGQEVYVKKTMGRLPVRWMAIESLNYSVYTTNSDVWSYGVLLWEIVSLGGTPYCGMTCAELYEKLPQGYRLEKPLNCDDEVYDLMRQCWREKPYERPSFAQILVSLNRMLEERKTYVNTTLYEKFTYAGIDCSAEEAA"}, "source": "patent US9062043B2", "about": "“Fused tricyclic compounds as serine-threonine protein kinase and PARP modulators” (SENHWA BIOSCIENCES, INC., priority 2006, dated 2015)", "test_in_all_cases": "Kinase inhibition, percentage of activity at 0.5 μM, standardized radiometric kinase assays;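 also: each kinase tested separately, with activity read as 33P-labelled substrate protein captured on filters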", "assay_type_in_all_cases": "biochemical", "key": {"[1]": {"target": "protein kinases (Homo sapiens, UniProt O14757)", "conditions": "CHK1(h)"}, "[2]": {"target": "protein kinases (Homo sapiens, UniProt P08581)", "conditions": "Met(h)"}, "[3]": {"target": "protein kinases (Homo sapiens, UniProt Q9Y6M4)", "conditions": "CK1γ3(h)"}, "[4]": {"target": "protein kinases (Homo sapiens, UniProt P54756)", "conditions": "EphA5(h)"}, "[5]": {"target": "protein kinases (Homo sapiens, UniProt Q15375)", "conditions": "EphA7(h)"}, "[6]": {"target": "protein kinases (Homo sapiens, UniProt Q9H2X6)", "conditions": "HIPK2(h)"}, "[7]": {"target": "protein kinases (Homo sapiens, UniProt Q02763)", "conditions": "Tie2(h)"}, "[8]": {"target": "protein kinases (Homo sapiens, UniProt P17252)", "conditions": "PKCα(h)"}, "[9]": {"target": "protein kinases (Homo sapiens, UniProt O60674)", "conditions": "JAK2(h)"}}, "data": [{"smiles": "C#Cc1cccc(Nc2nc3cc(C(=O)O)ccc3c3cncnc23)c1", "note": "[compound A2]", "values": [{"measurement": "% activity at 0.5 μM", "setting": "[1]", "value": 99, "unit": "%"}, {"measurement": "% activity at 0.5 μM", "setting": "[2]", "value": 122, "unit": "%"}, {"measurement": "% activity at 0.5 μM", "setting": "[3]", "value": 100, "unit": "%"}, {"measurement": "% activity at 0.5 μM", "setting": "[4]", "value": 125, "unit": "%"}, {"measurement": "% activity at 0.5 μM", "setting": "[5]", "value": 99, "unit": "%"}, {"measurement": "% activity at 0.5 μM", "setting": "[6]", "value": 11, "unit": "%"}, {"measurement": "% activity at 0.5 μM", "setting": "[7]", "value": 99, "unit": "%"}, {"measurement": "% activity at 0.5 μM", "setting": "[8]", "value": 99, "unit": "%"}, {"measurement": "% activity at 0.5 μM", "setting": "[9]", "value": 99, "unit": "%"}]}]}
